# Melting point values, as collected for the OPERA models

Values as listed in the OPERA 2.9 repository of K. Mansouri.

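The numbers are reported measurements, compiled and curated for the OPERA QSAR suite. One number stands for a compound and property, with no spread given. Conditions of the individual experiments are not part of the data. Where a salt, mixture or single isomer is drawn, the source does not say that exactly this form was tested. Some entries may be limits or estimates that an upstream database listed as plain numbers.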

The melting point is given in degrees Celsius.
"via" names the databases from which the curators took the value.

- Nc1cc(-c2ccc(F)cc2)no1: melting point 101 °C (via OCHEM)
- O=C(O)Cc1ccc(-n2cnnn2)cc1: melting point 172 °C (via OCHEM)
- Cn1ccnc1C(=O)c1ccccc1Cl: melting point 100 °C (via OCHEM)
- Cc1ccc2cc(C(=O)O)[nH]c2c1: melting point 210 °C (via OCHEM)
- O=C(O)CCNC(=O)C12CC3CC(CC(C3)C1)C2: melting point 186 °C (via OCHEM)
- CO/N=C(\C(C)=O)C1(C)OCC(C)(C)CO1: melting point 40 °C (via eChemPortal)
- O=C(O)c1ccc(=O)n(Cc2ccccc2Cl)c1: melting point 183 °C (via OCHEM)
- CC(C)(C)N(NC(=O)c1ccccc1)C(=O)c1ccccc1[N+](=O)[O-]: melting point 182 °C (via OCHEM)
- Clc1ccc(C(Cl)c2ccc(Cl)cc2)cc1: melting point 58 °C (via OCHEM)
- Clc1ccc(-c2c(Cl)c(Cl)cc(Cl)c2Cl)cc1Cl: melting point 122 °C (via QSARDB)
- Cc1cccc(-c2nnc(CCl)o2)c1: melting point 58 °C (via OCHEM)
- O=C(O)c1cc2ccc(Cl)cc2[nH]1: melting point 243 °C (via OCHEM)
- CC(C)(C)NS(=O)(=O)c1cc(C(=O)O)ccc1Cl: melting point 213 °C (via OCHEM)
- CC(C)(C)C(=O)NCC(=O)O: melting point 133 °C (via OCHEM)
- Cc1cc(N)n(-c2ccc(F)cc2)n1: melting point 110 °C (via OCHEM)
- Nc1c(C(=O)O)ccc(Cl)c1Cl: melting point 236 °C (via OCHEM)
- COCCCNCC1COc2ccccc2O1.Cl (centres undefined): melting point 184 °C (via OCHEM)
- Cc1nn(-c2ccccc2)c(Cl)c1CCl: melting point 38 °C (via OCHEM)
- c1csc(CNc2cc[nH]n2)c1: melting point -14.1 °C (via eChemPortal)
- CCN(CC)S(=O)(=O)c1ccc2c(c1)CCN2: melting point 81 °C (via OCHEM)
- c1cc(-c2nnco2)ccn1: melting point 120 °C (via OCHEM)
- Cn1c(-c2ccccc2)c(C(=O)O)c2ccccc21: melting point 193 °C (via OCHEM)
- O=C(O)c1ccccc1SCc1cccs1: melting point 179 °C (via OCHEM)
- O=C(O)c1c[nH]c(=S)n1-c1ccccc1: melting point 246 °C (via OCHEM)
- CN1C(=O)NC(=O)C12CCCCC2: melting point 173 °C (via OCHEM)
- NC(=O)CSc1ccccc1N: melting point 114 °C (via OCHEM)
- O=C(O)c1ccc2c(c1)C(=O)N(c1ccc(F)cc1)C2=O: melting point 296 °C (via OCHEM)
- O=C(O)Cc1ccc2c(c1)CCCC2: melting point 79 °C (via OCHEM)
- O=C(O)CNC(=O)c1ccccc1Cl: melting point 183 °C (via OCHEM)
- CC1=[N+](C)c2ccc3ccccc3c2C1(C)C.Cc1ccc(S(=O)(=O)[O-])cc1: melting point 211 °C (via eChemPortal)
- O=C(O)c1cc(Cl)c(Cl)[nH]1: melting point 165 °C (via OCHEM)

Excerpt, the final 3 entries:

- O=C(O)CNC(=O)c1ccccc1Cl: melting point 183 °C (via OCHEM)
- CC1=[N+](C)c2ccc3ccccc3c2C1(C)C.Cc1ccc(S(=O)(=O)[O-])cc1: melting point 211 °C (via eChemPortal)
- O=C(O)c1cc(Cl)c(Cl)[nH]1: melting point 165 °C (via OCHEM)